Earlier results in US9260430B2, “Use of TRPA1 antagonists to prevent or treat infections caused by biological-warfare agents” (dated 2016).
Where two headings read alike, the source gives them in different places.

Protein sequences, listed by entry. Tags and fused reporters are not part of them. Residues count along the entry.
UniProt Q6RI86, whole entry: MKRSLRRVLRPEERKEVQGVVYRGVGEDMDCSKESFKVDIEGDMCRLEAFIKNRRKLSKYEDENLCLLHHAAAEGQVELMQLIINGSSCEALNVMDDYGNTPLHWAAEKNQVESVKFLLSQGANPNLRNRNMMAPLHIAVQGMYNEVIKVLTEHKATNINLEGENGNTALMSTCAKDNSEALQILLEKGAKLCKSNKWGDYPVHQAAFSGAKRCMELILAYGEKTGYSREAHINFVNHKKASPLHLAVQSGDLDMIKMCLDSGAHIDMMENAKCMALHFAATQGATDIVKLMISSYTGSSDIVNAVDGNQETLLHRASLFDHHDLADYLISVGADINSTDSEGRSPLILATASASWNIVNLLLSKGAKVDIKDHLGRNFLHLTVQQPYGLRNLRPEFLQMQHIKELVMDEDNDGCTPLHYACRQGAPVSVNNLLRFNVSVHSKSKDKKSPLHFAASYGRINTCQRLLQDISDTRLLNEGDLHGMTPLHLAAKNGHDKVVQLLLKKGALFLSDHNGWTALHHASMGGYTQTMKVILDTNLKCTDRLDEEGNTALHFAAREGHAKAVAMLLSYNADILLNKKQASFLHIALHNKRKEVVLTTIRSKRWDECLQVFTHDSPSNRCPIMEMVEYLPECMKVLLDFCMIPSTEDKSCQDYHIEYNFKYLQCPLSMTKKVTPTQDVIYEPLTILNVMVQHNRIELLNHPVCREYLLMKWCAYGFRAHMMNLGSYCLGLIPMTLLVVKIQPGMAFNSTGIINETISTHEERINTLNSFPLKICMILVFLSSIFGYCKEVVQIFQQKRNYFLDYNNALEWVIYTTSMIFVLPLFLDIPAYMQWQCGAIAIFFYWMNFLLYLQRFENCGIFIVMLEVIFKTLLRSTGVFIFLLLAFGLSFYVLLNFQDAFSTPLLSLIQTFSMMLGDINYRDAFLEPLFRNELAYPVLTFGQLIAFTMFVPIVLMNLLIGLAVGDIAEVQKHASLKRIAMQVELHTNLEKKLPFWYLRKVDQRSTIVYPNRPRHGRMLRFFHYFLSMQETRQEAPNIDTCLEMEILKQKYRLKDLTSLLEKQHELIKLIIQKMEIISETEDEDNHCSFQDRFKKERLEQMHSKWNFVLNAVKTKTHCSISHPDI
UniProt Q8NER1, whole entry: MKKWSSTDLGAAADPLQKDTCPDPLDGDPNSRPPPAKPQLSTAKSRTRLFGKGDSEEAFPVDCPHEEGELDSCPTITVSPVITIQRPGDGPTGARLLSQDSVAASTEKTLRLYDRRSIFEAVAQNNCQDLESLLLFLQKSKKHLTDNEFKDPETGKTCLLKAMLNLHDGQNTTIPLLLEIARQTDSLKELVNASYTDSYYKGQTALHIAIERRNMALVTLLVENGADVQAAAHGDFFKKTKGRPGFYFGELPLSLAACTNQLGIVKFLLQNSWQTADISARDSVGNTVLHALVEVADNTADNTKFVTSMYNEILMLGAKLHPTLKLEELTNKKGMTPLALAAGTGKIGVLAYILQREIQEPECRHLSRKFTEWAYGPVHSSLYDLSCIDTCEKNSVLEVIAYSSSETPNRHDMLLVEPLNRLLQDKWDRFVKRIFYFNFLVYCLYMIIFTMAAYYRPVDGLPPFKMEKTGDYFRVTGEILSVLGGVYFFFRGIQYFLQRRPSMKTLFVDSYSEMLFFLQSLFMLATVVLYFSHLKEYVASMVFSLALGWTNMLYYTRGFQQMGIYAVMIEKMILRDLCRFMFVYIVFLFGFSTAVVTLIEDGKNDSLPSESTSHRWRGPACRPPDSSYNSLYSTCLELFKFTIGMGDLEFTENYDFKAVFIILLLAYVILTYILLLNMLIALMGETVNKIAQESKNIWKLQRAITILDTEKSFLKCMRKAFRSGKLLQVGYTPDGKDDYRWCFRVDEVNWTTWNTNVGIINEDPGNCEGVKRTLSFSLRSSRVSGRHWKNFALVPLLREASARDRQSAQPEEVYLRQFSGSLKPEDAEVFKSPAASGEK
UniProt Q8NET8, whole entry: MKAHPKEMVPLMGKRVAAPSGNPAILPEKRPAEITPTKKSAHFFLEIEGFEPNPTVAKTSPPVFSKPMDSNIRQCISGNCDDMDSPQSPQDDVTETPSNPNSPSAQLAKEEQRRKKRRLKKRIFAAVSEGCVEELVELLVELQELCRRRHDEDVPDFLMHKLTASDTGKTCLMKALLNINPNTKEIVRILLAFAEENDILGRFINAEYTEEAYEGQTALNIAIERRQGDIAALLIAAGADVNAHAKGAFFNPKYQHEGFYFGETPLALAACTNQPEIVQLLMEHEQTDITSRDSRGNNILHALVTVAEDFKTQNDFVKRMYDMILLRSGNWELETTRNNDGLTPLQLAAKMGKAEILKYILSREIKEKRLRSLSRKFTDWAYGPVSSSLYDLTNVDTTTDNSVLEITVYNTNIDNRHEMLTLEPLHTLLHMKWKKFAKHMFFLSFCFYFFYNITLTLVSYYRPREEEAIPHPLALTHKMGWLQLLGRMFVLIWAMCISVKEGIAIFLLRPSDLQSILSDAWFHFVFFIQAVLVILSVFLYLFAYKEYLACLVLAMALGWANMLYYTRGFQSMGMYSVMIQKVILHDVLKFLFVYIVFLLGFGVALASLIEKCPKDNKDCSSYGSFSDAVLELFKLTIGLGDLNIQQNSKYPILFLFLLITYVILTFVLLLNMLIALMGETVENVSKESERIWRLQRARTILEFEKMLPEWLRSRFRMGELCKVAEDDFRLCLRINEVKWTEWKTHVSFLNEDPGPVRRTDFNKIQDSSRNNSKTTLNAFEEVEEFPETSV
UniProt Q8BLA8, whole entry: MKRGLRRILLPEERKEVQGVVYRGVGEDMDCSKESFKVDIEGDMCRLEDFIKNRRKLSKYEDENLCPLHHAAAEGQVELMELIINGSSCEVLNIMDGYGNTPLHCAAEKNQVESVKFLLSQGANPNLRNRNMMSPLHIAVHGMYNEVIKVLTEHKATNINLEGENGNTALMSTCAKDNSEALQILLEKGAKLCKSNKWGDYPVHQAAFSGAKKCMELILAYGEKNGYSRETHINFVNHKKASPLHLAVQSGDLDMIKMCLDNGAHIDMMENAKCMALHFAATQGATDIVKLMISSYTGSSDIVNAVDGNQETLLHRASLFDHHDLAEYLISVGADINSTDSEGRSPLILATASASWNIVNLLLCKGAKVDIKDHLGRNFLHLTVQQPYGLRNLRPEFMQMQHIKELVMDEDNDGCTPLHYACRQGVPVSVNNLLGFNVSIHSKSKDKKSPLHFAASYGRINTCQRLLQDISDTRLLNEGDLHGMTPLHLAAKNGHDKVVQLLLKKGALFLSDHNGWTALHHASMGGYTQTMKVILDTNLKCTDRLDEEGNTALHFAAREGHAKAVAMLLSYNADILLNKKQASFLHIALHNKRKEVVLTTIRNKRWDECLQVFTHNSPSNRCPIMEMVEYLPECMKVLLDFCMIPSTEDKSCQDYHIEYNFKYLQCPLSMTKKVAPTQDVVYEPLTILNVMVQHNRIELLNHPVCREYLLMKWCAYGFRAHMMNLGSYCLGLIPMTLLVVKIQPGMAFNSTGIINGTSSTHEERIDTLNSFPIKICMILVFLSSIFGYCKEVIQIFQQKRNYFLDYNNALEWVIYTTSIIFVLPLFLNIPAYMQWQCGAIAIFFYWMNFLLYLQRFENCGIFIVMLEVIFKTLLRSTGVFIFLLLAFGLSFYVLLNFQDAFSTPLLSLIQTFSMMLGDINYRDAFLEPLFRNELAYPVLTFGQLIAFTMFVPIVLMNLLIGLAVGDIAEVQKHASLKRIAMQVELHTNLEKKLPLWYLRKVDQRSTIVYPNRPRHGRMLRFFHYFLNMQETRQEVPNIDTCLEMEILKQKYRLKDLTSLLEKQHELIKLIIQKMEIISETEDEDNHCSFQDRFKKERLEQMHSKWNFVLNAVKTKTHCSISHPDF
UniProt Q12809, whole entry: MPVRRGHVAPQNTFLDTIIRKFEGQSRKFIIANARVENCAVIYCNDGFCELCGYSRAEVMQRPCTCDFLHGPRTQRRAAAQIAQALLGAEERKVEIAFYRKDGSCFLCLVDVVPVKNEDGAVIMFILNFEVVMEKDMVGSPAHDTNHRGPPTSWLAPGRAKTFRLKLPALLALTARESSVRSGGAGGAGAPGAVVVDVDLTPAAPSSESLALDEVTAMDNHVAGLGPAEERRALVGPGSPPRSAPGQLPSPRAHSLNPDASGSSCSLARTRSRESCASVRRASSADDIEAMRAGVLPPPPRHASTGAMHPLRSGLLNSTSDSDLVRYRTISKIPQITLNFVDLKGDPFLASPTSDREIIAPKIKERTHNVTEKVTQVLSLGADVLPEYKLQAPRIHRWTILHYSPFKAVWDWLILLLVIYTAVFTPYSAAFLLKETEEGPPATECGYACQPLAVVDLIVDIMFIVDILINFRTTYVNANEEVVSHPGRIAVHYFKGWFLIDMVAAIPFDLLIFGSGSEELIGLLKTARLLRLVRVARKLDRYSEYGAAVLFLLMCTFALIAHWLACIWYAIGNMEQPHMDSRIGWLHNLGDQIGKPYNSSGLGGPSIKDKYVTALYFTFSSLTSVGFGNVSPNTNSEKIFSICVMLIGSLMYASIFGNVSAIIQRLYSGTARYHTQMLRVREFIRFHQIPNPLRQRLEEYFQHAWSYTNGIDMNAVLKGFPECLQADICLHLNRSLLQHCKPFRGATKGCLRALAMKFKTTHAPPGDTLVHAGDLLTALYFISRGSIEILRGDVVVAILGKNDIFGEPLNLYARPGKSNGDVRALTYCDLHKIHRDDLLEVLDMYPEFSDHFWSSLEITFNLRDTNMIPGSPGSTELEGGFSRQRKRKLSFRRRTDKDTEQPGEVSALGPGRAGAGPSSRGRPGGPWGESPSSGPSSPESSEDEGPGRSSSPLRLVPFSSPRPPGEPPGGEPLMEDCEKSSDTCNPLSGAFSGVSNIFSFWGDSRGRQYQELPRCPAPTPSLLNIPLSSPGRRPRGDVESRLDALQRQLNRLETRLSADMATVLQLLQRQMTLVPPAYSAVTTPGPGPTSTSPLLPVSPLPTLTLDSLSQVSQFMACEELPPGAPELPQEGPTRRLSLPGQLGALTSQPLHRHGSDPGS
UniProt H0VJD1, 1-991: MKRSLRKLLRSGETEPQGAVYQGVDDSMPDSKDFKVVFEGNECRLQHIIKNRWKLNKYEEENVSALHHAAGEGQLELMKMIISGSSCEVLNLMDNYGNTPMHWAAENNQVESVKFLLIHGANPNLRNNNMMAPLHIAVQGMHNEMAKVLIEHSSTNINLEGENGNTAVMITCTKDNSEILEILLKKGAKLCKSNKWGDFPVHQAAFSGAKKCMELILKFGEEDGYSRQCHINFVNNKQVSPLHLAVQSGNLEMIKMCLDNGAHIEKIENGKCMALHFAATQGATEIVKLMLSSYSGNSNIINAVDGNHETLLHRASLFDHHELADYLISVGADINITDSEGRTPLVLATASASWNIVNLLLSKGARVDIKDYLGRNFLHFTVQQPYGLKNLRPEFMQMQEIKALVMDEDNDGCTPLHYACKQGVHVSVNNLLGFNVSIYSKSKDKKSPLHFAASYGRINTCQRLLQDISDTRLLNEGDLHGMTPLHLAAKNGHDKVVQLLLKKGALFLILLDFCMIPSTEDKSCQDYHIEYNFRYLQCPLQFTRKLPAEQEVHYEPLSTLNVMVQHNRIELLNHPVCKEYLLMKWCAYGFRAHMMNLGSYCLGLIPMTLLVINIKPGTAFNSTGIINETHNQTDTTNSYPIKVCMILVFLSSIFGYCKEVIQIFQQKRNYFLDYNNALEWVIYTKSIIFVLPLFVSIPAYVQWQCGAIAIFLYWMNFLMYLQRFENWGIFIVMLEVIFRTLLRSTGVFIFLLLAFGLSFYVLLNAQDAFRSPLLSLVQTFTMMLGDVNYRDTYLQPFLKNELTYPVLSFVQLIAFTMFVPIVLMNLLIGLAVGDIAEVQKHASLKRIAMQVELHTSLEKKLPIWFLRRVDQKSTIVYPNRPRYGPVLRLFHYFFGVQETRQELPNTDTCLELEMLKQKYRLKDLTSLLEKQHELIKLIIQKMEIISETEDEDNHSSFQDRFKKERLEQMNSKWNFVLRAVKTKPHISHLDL

Legend:
TRPA1 [1] = details: in vivo
TRPA1 [2] = target: TRPA1 (Homo sapiens, UniProt O75762); details: read-out: IC50, TRPA1 antagonist
TRPV4 = TRPV4 (Homo sapiens, UniProt Q9HBA0); details: patch clamp
TRPA1 [3] = target: T1, TRPA1 (Rattus norvegicus, UniProt Q6RI86); details: rats, 300 mg/kg i.p.
rat DRG cells = details: cultured rat DRG cells
TRPA1 [4] = target: T1, TRPA1; details: CFA model, oral 100 mg/kg
TRPA1 [5] = target: T1, TRPA1; details: SNL model
human TRPV1 = human TRPV1 (Homo sapiens, UniProt Q8NER1); details: patch clamp
TRPA1 [6] = target: T1, TRPA1; details: rat formalin model, i.p.
TRPV3 = TRPV3 (Homo sapiens, UniProt Q8NET8); details: patch clamp
TRPA1 [7] = target: T2, TRPA1 (Mus musculus, UniProt Q8BLA8); details: i.p. 200 mg/kg per day for 4 days during ovalbumin challenge
NaV1.2 = NaV1.2 (Homo sapiens, UniProt Q99250); details: patch clamp
hERG = hERG (Homo sapiens, UniProt Q12809); details: patch clamp
TRPA1 [8] = target: TRPA1 (Cavia porcellus, UniProt H0VJD1); details: guinea pigs
TRPA1 [9] = target: T2, TRPA1; details: local administration, mice
TRPA1 [10] = target: T1, TRPA1; details: local administration, rats
TRPA1 [11] = system: TRPA1

In the case of `Cn1c(=O)c2c(CC(=O)Nc3nc(-c4ccc(Cl)cc4)cs3)cccc2n(C)c1=O`, the “efficacy in multiple pain models” value (TRPA1 [1]) is listed as “efficacious” and the IC50 (TRPA1 [2]) is listed as under 0.1 µM.
For `CC(C)c1ccc(NC(=O)Cn2cnc3c2c(=O)n(C)c(=O)n3C)cc1`, the “block of currents mediated by TRPV4” value (TRPV4) is given as “does not block”, the “AITC (4)-induced flinching” value (TRPA1 [3]) is given as “significantly reduced” and the “increases in intracellular calcium concentration evoked by AITC (4) or formaldehyde” value (rat DRG cells) is given as “blocks”. For the same compound, the “reversal of mechanical hypersensitivity” value (TRPA1 [4]) was 28%, the “reversal of mechanical hypersensitivity” value (TRPA1 [5]; oral 100 mg/kg) was 24% and the “reversal of mechanical hypersensitivity” value (TRPA1 [5]; oral 300 mg/kg) was 45%. The “block of currents mediated by human TRPV1” value (human TRPV1) was “does not block”, the “number of flinches in phase I and IIa” value (TRPA1 [6]) was “dose-dependently reduces” and the “block of currents mediated by TRPV3” value (TRPV3) was “does not block”. For the same compound, the airway hyper-reactivity (TRPA1 [7]) was “complete suppression”, the “block of currents mediated by NaV1.2” value (NaV1.2) was “does not block” and the “block of currents mediated by hERG” value (hERG) was “does not block”. The “pro-tussive effects of TRPA1 agonists” value (TRPA1 [8]) was “inhibited”.
In the case of `CC(=Cc1ccc(Cl)cc1)C(C)=NO`, the “development of CFA-induced mechanical hyperalgesia” value (TRPA1 [9]) is listed as “significantly reduces”, the “nociceptive behaviour caused by CFA (3) injection” value (TRPA1 [9]) is listed as “significantly reduces” and the CFA-induced cold allodynia (TRPA1 [10]) is listed as “reverses”. For the same compound, the “effect in TRPA1 knockout mice” value (TRPA1 [11]) was “without effect” and the “selectivity for modulation of TRPA1 with respect to TRPV1 to TRPV4 and TRPM8” value (TRPV1 to TRPV4 and TRPM8) was “selective”.
